One assay has as its system KURAMOCHI cells. Briefly: Inhibition of proliferation of KURAMOCHI cells (CellTiter-Glo, intracellular ATP). The following applies: read-out: IC50 against KURAMOCHI cells, incubated for 7 days, tested form: formate. Background: ATP-based viability assays read luminescence as a measure of living cells.
Another assay has as its target PARG (Homo sapiens, UniProt Q86W56). Briefly: Enzymatic inhibitory activity against PARG, HTRF assay. Format: biochemical. The following applies: read-out: IC50 against PARG enzyme, PARylated PARP1 protein as substrate, 60 minutes at room temperature, tested form: formate. In general terms: TR-FRET usually uses a lanthanide donor and a delayed reading to cut background.

Amino acid sequences for entries named in this document (tags omitted).
UniProt Q86W56, whole entry: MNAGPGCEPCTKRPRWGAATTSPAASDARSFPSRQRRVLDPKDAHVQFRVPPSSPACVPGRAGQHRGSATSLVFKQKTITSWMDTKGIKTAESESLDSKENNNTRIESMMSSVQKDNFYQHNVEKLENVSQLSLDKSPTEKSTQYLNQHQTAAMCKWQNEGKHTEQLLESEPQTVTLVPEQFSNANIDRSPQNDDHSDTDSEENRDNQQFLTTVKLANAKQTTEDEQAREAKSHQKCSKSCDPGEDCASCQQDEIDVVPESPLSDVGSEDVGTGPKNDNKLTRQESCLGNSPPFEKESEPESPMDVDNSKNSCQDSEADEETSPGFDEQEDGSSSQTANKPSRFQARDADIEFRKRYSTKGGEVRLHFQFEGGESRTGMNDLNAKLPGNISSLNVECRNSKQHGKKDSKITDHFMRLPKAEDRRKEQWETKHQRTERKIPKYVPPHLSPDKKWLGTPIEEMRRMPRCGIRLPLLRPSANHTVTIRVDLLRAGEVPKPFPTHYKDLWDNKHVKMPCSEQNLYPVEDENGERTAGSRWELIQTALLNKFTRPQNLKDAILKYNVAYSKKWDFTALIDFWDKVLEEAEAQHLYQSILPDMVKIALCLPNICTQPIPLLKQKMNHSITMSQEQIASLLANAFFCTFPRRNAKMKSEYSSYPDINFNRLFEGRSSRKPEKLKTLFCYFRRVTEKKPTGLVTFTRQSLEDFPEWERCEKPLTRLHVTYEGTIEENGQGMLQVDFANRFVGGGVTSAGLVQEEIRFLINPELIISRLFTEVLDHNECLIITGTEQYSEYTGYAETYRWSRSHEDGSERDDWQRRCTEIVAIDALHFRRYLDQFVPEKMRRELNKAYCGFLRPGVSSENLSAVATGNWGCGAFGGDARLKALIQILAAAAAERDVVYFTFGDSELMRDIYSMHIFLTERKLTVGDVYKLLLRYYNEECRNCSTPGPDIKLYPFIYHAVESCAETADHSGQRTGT

Molecules are shown by their SMILES. pIC50: −log10 of the molar value.

As a reminder, the pIC50 is −log10 of the IC50, conventionally taken in molar units. For the compound `C[C@H]1CN(c2cc(S(=O)(=O)NC3(C)CC3)cc3c2nc([C@@H]2CC(F)(F)CO2)n3-c2nnc(C(F)F)s2)C[C@H](C)N1`, the pIC50 in the assay with KURAMOCHI cells is 8.70; on PARG it was 9.22.

The values are drawn from patent publication EP4800013A1, “PARG INHIBITOR” (Shanghai Qilu Pharmaceutical Research and Development …, priority 2023, dated 2025).
